System: rat
Assay: Primary Observation (Irwin) Test in the rat
Assay type: in vivo
Settings: listed as 4-(2,2-difluoro-benzo[1,3]dioxol-5-ylmethyl)-piperazine-1-carboxylic acid (4-chl
Protocol: Primary Observation (Irwin) Test in the Rat
The method, which detects the first toxic dose, the active dose-range and the main effects of a test substance on behavior and physiological function, follows that described by Irwin et al., Psychopharmacologia, 1968, 13, 222-257. […] All animals within a treatment group were observed simultaneously. Behavioral modifications, physiological and neurotoxicity symptoms, rectal temperature and pupil diameter were recorded according to a standardized observation grid derived from that of Irwin. The grid contains the following items: death, convulsions, tremor, Straub tail, altered activity, jumping, abnormal gait (rolling, tip-toe), motor uncoordination, altered abdominal muscle tone, loss of grasping, akinesia, catalepsy, loss of traction, loss of balance, fore-paw treading, writhes, piloerection, stereotypies (sniffing, chewing, head movements), head twitches, scratching, altered respiration, aggression, altered fear/startle, altered reactivity to touch, ptosis, exophthalmia, loss of righting reflex, loss of corneal reflex, analgesia, defecation/diarrhea, salivation, lacrimation, rectal temperature (hypothermia/hyperthermia) and pupil diameter (myosis/mydriasis). The test substances were evaluated at 2 doses (10 and 60 mg/kg), administered p.o. immediately before the test, and compared with a vehicle control group. Observations were performed 15, 30, 60, 120 and 180 minutes after administration of the test substances/vehicles and also 24 hours later.

With `O=C(Nc1cnccc1Cl)N1CCN(Cc2ccc3c(c2)OC(F)(F)O3)CC1` [Example 1] the “Increased reactivity to touch (rats affected/tested)” value (10 mg/kg p.o., at 180 min) was “one of four rats”, the “Increased abdominal muscle tone (rats affected/tested)” value (60 mg/kg p.o., at 60 min) was “one of four rats” and the “Abnormal gait (rats affected/tested)” value (60 mg/kg p.o.) was “not apparent”. The “Hypothermia (rats affected/tested)” value (60 mg/kg p.o.) was “absent” and the “Sedation (rats affected/tested)” value (60 mg/kg p.o.) was “not apparent”.

From US9688664B2, “Modulators of fatty acid amide hydrolase” (JANSSEN PHARMACEUTICA NV, priority 2010, dated 2017)
